Molecular target: human NK3 receptor (Homo sapiens (Human), UniProt P29371)
Assay: [3H]SR142801 competition binding assay
Details: read-out: Ki (uM) hNK3, membranes from HEK293 cells transiently expressing recombinant human NK3 receptor, Ki from IC50 by Cheng-Prussoff
Experimental: hNK3 receptor binding experiment were performed using [^3H]SR142801 (Catalog No. TRK1035, specific activity: 74.0 Ci/mmol, Amersham, GE Healthcare UK limited, Buckinghamshire, UK) and membrane isolated from HEK293 cells transiently expressing recombinant human NK3 receptor. After thawing, the membrane homogenates were centrifuged at 48,000×g for 10 min at 4° C., the pellets were resuspended in the 50 mM Tris-HCl, 4 mM MnCl2, 1 μM phosphoramidon, 0.1% BSA binding buffer at pH 7.4 to a final assay concentration of 5 μg protein/well. For inhibition experiments, membranes were incubated with [^3H]SR142801 at a concentration equal to KD value of radioligand and 10 concentrations of the inhibitory compound (0.0003-10 μM) (in a total reaction volume of 500 μl) for 75 min at room temperature (RT). […] Nonspecific binding was measured in the presence of 10μM SB222200 for both radioligands. The radioactivity on the filter was counted (5 min) on a Packard Top-count microplate scintillation counter with quenching correction after addition of 45 μl of microscint 40 (Canberra Packard S.A., Ziirich, Switzerland) and shaking for 1 h. […]

Chains of the proteins cited; added tags and fusions are not shown.
UniProt P29371, whole entry: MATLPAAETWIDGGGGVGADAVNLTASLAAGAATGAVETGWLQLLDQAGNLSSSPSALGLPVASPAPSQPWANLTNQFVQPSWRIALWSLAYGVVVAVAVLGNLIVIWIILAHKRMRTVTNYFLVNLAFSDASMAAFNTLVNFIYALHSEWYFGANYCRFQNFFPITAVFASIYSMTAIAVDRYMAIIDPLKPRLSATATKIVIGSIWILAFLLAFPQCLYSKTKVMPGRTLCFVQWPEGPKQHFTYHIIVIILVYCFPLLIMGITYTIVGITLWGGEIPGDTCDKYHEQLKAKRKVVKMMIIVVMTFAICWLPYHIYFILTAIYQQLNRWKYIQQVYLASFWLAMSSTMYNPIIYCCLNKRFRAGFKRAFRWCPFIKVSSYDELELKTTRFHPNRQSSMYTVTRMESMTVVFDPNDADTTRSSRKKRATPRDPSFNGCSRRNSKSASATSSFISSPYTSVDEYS

Structure (SMILES): CN(C(=O)Oc1ccc(F)cc1)[C@@H]1CN(C(=O)C2CCN(c3ccc(C#N)nc3)CC2)C[C@@]1(C)c1ccc(Cl)cc1 (relative stereo)
- Ki: 0.0029 µM
